The record followed here is ChEMBL document CHEMBL2021835 (J Med Chem, 2012).

The nature of experiment [1]: Selectivity ratio of Ki for STAT1 to Ki for STAT5b-SH2 domain.
Experiment [2] in a line: Selectivity ratio of Ki for STAT3 to Ki for STAT5b-SH2 domain.

As to `Cc1ccc(S(=O)(=O)N(CC(=O)N(Cc2ccccc2)c2ccc(C(=O)O)c(O)c2)C(=O)OC(C)(C)C)cc1`, the Ratio Ki in experiment [1] and in experiment [2] was 2 in each case.
In the case of `CN(CC(=O)N(Cc1ccc(C2CCCCC2)cc1)c1ccc(C(=O)O)c(O)c1)S(=O)(=O)c1ccc(-c2ccccc2)cc1`, the Ratio Ki in experiment [1] and in experiment [2] was 2 each time.
